This is a selection; strong and weak results do not stand in their true shares. Some of these compounds have results that are not shown, active ones among them. Calls of active or inactive are those of the source.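 The calls were made as follows: active = activation above the average of all compounds screened plus 3 SD, cutoff fixed separately per campaign (cut at about 7.5% in these data); inactive = the rest.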

The source of these data is PubChem BioAssay AID540364 (The Scripps Research Institute Molecular Screening Center, 2011).

The assay can be described thus: GAA850 frataxin promoter reporter upregulation – cell-based, luciferase luminescence, HEK293 lucGAA850, primary screen (AID 540364).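 Also: 0% = DMSO wells and 100% = 10 µM SAHA wells.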 The note with it: HEK293 lucGAA850 FXN promoter luciferase reporter, 24 h; at 6 µM; hits give high values; percent of 10 µM SAHA response.
As for `O=C(OC1CN2CCC1CC2)C(CO)(c1ccccc1)c1ccccc1` (stereo unspecified), the activation is inactive: 1.45%.
Consider `C=C(C)C#CC(O)(C(=O)OC1CCN(C)CC1)c1ccccc1` (stereo unspecified), for which the activation was inactive: 1.14%.
For the compound `COc1ccc(Br)c(C(=O)NCC2(N3CCCCC3)CCCCC2)c1`, the activation was inactive: -1.02%.
As for `O=C(OCCN1CCCC1)C(O)(c1ccccc1)c1ccccc1`, the figure is inactive: 2.58%.
For `CC(C)Oc1ccc(C(=O)NCC2(N(C)C)CCCCC2)cc1` the value was inactive: 1.42%; for `CN(C)c1cccc(C(=O)NCC2(N(C)C)CCCCC2)c1`, inactive: -0.3%.
As for `CN(C)C1(CNC(=O)c2ccc(Br)cc2)CCCCC1`, the figure is inactive: -0.03%; as for `COc1cc(C(=O)NCC2(N(C)C)CCCCC2)c([N+](=O)[O-])cc1OC`, inactive: 2.5%; as for `COc1ccc(Cl)cc1C(=O)NCC1(N(C)C)CCCCC1`, inactive: -0.46%.
Regarding `COc1cccc(C(=O)NCC2(N3CCCCC3)CCCCC2)c1`, the activation is inactive: 2.52%.
For `O=C(NCC1(N2CCCCC2)CCCCC1)c1cccc(Cl)c1` the value was inactive: 2.08%.
As for `CN(C)c1ccc(C(=O)NCC2(N(C)C)CCCCC2)cc1`, the figure is inactive: 1.52%; as for `CN(C)C1CCCC1OC(=O)C(O)(c1ccccc1)c1ccccc1` (stereo unspecified), inactive: -0.55%.
For `Cc1ccccc1C(=O)NCC1(N2CCCCC2)CCCCC1`, the activation was inactive: 0.59%.
As for `O=C(NCC1(N2CCCCC2)CCCCC1)c1cc(F)c(F)cc1Cl`, the figure is inactive: 2.65%; as for `C=CCN1CCN(CCOC(=O)C(O)(c2ccccc2)c2ccccc2)CC1`, inactive: 0.38%; as for `COc1ccc(C(=O)NCC2(N(C)C)CCCCC2)cc1`, inactive: 1.61%.
On to `O=C(NCC1(N2CCCCC2)CCCCC1)c1cccc(Br)c1`, for which the activation is inactive: 3.1%.
As for `CCN1CCCC(OC(=O)C2(O)c3ccccc3C=Cc3ccccc32)C1` (stereo unspecified), the figure is inactive: -0.7%.
As for `Cc1cc(C(=O)NCC2(N3CCCCC3)CCCCC2)ccc1[N+](=O)[O-]`, the figure is inactive: 2.78%.
Take `O=C(NCC1(N2CCCCC2)CCCCC1)c1cc([N+](=O)[O-])ccc1Cl`: the activation was inactive: -0.78%.
As for `CN1[C@@H]2CC[C@H]1CC(OC(=O)C(O)(c1ccccc1)c1ccccc1)C2` (stereo partly specified), the figure is inactive: -0.71%; as for `COc1cc(SC)ccc1C(=O)NCC1(N(C)C)CCCCC1`, inactive: 1.65%.
As for `CCN(CC)CC(C)C(C)OC(=O)C(O)(c1ccccc1)c1ccccc1` (stereo unspecified), the figure is inactive: -1.67%; as for `CC(C)N1C(=O)CC2(CCN(CCOC(=O)C(O)(c3ccccc3)c3ccccc3)CC2)C1=O`, inactive: 0.03%; as for `Cc1ccc(C(=O)NCC2(N3CCCCC3)CCCCC2)cc1`, inactive: 1.68%.
